Patent publication US5384243A (dated 1995)

Sequences of proteins named here, by UniProt entry; tags and fusion partners are left off.
UniProt P08173, whole entry: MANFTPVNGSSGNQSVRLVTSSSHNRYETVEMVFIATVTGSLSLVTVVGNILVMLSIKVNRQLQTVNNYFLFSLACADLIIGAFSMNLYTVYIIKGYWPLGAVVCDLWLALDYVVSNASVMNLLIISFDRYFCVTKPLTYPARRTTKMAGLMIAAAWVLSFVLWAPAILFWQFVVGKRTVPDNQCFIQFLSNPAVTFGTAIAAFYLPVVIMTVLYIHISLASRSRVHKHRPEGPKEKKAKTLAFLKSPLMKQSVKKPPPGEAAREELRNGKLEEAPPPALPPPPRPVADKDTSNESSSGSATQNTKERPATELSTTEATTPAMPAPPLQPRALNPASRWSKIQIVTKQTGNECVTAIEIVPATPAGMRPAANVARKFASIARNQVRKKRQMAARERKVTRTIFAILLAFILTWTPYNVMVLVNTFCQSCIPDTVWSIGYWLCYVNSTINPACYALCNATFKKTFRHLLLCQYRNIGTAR
UniProt P08172, whole entry: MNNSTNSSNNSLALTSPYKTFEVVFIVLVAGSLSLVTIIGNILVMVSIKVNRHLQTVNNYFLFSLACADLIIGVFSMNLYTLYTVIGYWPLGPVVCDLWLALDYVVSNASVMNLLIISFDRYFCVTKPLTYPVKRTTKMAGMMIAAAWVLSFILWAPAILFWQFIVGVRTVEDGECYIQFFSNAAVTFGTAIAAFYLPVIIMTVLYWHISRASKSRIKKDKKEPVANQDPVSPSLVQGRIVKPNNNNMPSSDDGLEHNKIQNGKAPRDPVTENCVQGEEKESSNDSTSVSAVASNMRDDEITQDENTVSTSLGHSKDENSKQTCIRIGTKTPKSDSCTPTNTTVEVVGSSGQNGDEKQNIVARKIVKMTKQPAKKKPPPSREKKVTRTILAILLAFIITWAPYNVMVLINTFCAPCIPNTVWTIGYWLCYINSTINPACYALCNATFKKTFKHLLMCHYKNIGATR

Experiments:
m4 mACHR [1] = molecular target: T1, m4 mACHR (Homo sapiens, UniProt P08173); details: nih/3t3 cells
m4 mACHR [2] = molecular target: T1, m4 mACHR
m2 mACHR [3] = molecular target: T2, m2 mACHR (Homo sapiens, UniProt P08172); details: nih/3t3 cells
m2 mACHR [4] = molecular target: T2, m2 mACHR

`C[N+](C)(C)CCOC(N)=O` [carbachol] was tested, and the “PI Hydrolysis Maximal activation” value (m4 mACHR [1]) was 1.3 fold, the “Transformation Maximal transportation” value (m4 mACHR [2]) was 0 and the “PI Hydrolysis Maximal activation” value (m2 mACHR [3]) was 1.2 fold. For the same compound, the “Transformation Maximal transportation” value (m2 mACHR [4]) was 0.
